Experimental data as given in patent publication US20160120863A1, “SLC2A TRANSPORTER INHIBITORS” (IOMET PHARMA LTD., priority 2013, published 2016).

The chains behind the UniProt entries cited, without tags or fusion partners.
UniProt P11166, whole entry: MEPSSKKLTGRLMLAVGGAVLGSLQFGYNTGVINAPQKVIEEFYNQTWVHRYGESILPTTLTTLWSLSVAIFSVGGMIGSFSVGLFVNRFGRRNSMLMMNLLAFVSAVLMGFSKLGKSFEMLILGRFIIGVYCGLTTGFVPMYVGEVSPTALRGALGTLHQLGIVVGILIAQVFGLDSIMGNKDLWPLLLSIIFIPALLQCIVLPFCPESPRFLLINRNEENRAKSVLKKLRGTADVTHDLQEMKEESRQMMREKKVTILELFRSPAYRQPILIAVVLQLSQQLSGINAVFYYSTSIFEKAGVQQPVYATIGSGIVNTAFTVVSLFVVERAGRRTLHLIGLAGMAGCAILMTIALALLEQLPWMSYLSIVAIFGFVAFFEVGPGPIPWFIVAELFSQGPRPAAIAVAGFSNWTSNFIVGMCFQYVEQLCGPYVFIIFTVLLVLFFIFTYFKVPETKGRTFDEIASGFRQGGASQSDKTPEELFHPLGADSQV
UniProt P11168, whole entry: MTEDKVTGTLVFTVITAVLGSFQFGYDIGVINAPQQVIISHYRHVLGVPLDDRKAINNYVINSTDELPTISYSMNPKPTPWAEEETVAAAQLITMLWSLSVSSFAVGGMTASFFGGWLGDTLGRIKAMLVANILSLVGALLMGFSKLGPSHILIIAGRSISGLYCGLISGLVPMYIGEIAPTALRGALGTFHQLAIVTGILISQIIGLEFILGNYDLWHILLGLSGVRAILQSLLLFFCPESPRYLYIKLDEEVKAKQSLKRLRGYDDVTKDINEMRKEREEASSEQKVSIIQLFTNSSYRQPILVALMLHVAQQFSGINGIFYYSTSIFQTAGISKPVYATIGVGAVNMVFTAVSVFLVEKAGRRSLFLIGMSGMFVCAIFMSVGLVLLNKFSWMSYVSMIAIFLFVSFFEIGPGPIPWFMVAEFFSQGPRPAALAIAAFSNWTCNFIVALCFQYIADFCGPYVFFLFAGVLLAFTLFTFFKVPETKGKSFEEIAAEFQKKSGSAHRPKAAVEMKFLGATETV
UniProt P11169, whole entry: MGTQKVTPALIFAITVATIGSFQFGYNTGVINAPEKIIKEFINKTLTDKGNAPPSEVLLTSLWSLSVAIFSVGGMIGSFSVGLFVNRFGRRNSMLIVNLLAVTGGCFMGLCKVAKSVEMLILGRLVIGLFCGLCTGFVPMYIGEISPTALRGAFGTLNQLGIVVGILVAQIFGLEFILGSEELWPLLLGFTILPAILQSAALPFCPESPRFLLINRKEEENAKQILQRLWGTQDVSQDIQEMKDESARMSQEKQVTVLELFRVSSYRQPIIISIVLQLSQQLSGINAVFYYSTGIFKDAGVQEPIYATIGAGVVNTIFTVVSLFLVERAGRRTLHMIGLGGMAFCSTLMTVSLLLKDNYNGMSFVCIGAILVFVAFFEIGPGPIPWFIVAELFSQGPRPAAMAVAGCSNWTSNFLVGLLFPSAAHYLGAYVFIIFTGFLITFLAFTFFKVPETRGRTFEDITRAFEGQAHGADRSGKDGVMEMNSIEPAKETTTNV
UniProt P14672, whole entry: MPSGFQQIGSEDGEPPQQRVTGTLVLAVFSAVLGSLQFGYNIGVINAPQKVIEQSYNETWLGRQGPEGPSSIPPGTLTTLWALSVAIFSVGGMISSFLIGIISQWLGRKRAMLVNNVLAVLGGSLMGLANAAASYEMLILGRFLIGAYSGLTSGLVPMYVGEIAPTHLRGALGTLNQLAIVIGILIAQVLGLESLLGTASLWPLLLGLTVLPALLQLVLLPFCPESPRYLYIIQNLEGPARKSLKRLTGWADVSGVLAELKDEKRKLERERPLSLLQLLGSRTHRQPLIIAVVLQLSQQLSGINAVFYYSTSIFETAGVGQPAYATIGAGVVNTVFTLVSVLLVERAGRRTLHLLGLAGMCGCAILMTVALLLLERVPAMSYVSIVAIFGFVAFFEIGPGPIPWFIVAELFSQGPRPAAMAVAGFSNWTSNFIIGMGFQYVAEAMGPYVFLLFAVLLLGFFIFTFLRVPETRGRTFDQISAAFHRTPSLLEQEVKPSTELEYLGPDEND

How the values were obtained:
[1] = biological target: human GLUT1 (Homo sapiens, UniProt P11166); assay: [3H]-deoxy-D-glucose uptake assay, GLUT1; assay type: cell-based; settings: [3H]-deoxy-D-glucose uptake in HEK293 cells stably expressing human GLUT1
[2] = biological target: human GLUT2 (Homo sapiens, UniProt P11168); assay: [3H]-deoxy-D-glucose uptake assay, GLUT2; settings: [3H]-deoxy-D-glucose uptake in HEK293 cells stably expressing human GLUT2
[3] = biological target: human GLUT3 (Homo sapiens, UniProt P11169); assay: [3H]-deoxy-D-glucose uptake assay, GLUT3; settings: [3H]-deoxy-D-glucose uptake in HEK293 cells stably expressing human GLUT3
Procedure: (§1) HEK293 cells were engineered to stably express either human GLUT1, GLUT2, GLUt3 or GLUT4 by transfection with the pReceiver-Lv105 plasmid, containing either hGLUT1, hGLUT2, hGLUT3, or hGLUT4 gene constructs with lipofectamine 2000, hGLUT1- hGLUT2- hGLUT3- or hGLUT4-overexpressing polyclonal populations were isolated under purinomycin selective pressure (1 μg/ml) and maintained in Dulbecco's modified Eagle's medium supplemented with 1 μg/ml purinomycin+10% foetal bovine serum (FBS).
(§2) 60,000 cells per well were seeded overnight into poly-D-lysine coasted 96-well plates. Following media removal, cells were washed twice in warm glucose-free uptake buffer (25 mM HEPES/KOH pH 7.4, 125 mM NaCl, 4.8 mM KCl, 1.2 mM MgSO4, 1.2 mM CaCl2, 1.2 mM KH2PO4). 90 μl of test compounds were added in glucose-free uptake buffer and cells were incubated at 37° C. for 30 min. 10 μl of [3H]-deoxy-D-glucose (0.25 μCi, 125 μM final assay concentration) was then added per well in glucose-free uptake buffer and uptake was allowed to proceed at 37° C. for 30 min.
(§3) Cells were then washed twice with ice-cold PBS and 100 μl of Microscint-20 was added per well. Glucose uptake was quantified with a scintillation counter. The half maximal inhibitory concentration (IC50) (a measure of the effectiveness of the test compound in inhibiting glucose uptake) was determined.

[4] = biological target: human GLUT4 (Homo sapiens, UniProt P14672); assay: [3H]-deoxy-D-glucose uptake assay, GLUT4; settings: [3H]-deoxy-D-glucose uptake in HEK293 cells stably expressing human GLUT4
Procedure: as §1, §2, §3

GLUT1 pIC50 [1]	GLUT2 pIC50 [2]	GLUT3 pIC50 [3]	GLUT4 pIC50 [4]	Structure (SMILES)
+++ (pIC50 ≧ 6.00)	+++ (pIC50 ≧ 6.00)	–	–	COCC(=O)N1CCN(Cc2c(-c3ccc(Cl)cc3)nc3ccc(N4CCCS4(=O)=O)cn23)CC1
++ (pIC50 5.00-5.99)	–	–	–	FC(F)(F)c1ccccc1-c1ccc2nc(-c3ccc(Cl)cc3)c(CN3CCOCC3)n2c1
+++ (pIC50 ≧ 6.00)	–	+++ (pIC50 ≧ 6.00)	+++ (pIC50 ≧ 6.00)	Clc1ccc(-c2nc3ccc(-c4ccccc4)cn3c2CN2CCOCC2)c(Cl)c1
+++ (pIC50 ≧ 6.00)	+++ (pIC50 ≧ 6.00)	–	–	O=C1CN(Cc2c(-c3ccc(Cl)cc3Cl)nc3ccc(-c4ncon4)cn23)CCN1
+++ (pIC50 ≧ 6.00)	–	–	–	O=C(c1ccnnc1)N1CCN(Cc2c(-c3ccc(Cl)cc3)nc3ccc(C4CC4)cn23)CC1
+− (pIC50 < 4.00)	–	–	–	OCc1nc2ccc(-c3ccccc3)cn2c1CN1CCOCC1
+++ (pIC50 ≧ 6.00)	+++ (pIC50 ≧ 6.00)	+++ (pIC50 ≧ 6.00)	+++ (pIC50 ≧ 6.00)	O=C1CCC2CN(Cc3c(-c4ccc(Cl)cc4)nc4cnc(C5CC5)cn34)CCN12 (stereo not drawn)
+++ (pIC50 ≧ 6.00)	++ (pIC50 5.00-5.99)	+++ (pIC50 ≧ 6.00)	+++ (pIC50 ≧ 6.00)	CS(=O)(=O)Nc1ccc2nc(-c3ccc(Cl)cc3Cl)c(CN3CCN(C(=O)C4CCOCC4)CC3)n2c1
+++ (pIC50 ≧ 6.00)	–	–	–	O=C(c1ccc(F)cc1)N1CCN(Cc2c(-c3ccc(Cl)cc3)nc3cnc(C4CC4)cn23)CC1
+++ (pIC50 ≧ 6.00)	++ (pIC50 5.00-5.99)	+++ (pIC50 ≧ 6.00)	+++ (pIC50 ≧ 6.00)	COCC(=O)N1CCN(Cc2c(-c3ccc(Cl)cc3Cl)nc3ccc(N(C)S(C)(=O)=O)cn23)CC1
+− (pIC50 < 4.00)	+− (pIC50 < 4.00)	–	–	Clc1ccc(-c2nc3ccc(-c4ccccc4)cn3c2CN2CCOCC2)nc1
+++ (pIC50 ≧ 6.00)	++ (pIC50 5.00-5.99)	–	–	N#Cc1cccnc1-c1ccc2nc(-c3ccc(Cl)cc3)c(CN3CCOCC3)n2c1
+++ (pIC50 ≧ 6.00)	+++ (pIC50 ≧ 6.00)	+++ (pIC50 ≧ 6.00)	+++ (pIC50 ≧ 6.00)	CN(c1ccc2nc(-c3ccc(Cl)cc3Cl)c(CN3CCN(C(=O)CO)CC3)n2c1)S(C)(=O)=O
+++ (pIC50 ≧ 6.00)	–	–	–	O=C(c1ccncn1)N1CCN(Cc2c(-c3ccc(Cl)cc3)nc3ccc(-c4ccccc4)cn23)CC1
+++ (pIC50 ≧ 6.00)	++ (pIC50 5.00-5.99)	–	–	O=C(C1CCOCC1)N1CCN(Cc2c(-c3ccc(Cl)cc3)nc3ccc(C4CC4)cn23)CC1
+++ (pIC50 ≧ 6.00)	–	–	–	COCC(=O)N1CCN(Cc2c(-c3ccc(C)cc3)nc3ccc(-c4ccccc4)cn23)CC1
+++ (pIC50 ≧ 6.00)	–	–	–	Clc1ccc(-c2nc3ccc(-c4ncccc4Cl)cn3c2CN2CCOCC2)cc1
+− (pIC50 < 4.00)	–	–	–	Clc1ccc(-c2nc3ccc(-c4ccccc4)nn3c2CN2CCOCC2)cc1

Structure (SMILES)	GLUT1 pIC50 [1]	GLUT2 pIC50 [2]	GLUT3 pIC50 [3]	GLUT4 pIC50 [4]
COc1cccc(-c2nc3ccc(-c4ccccc4)cn3c2CN2CCN(C(=O)COc3ccc(Cl)cc3)CC2)c1	+ (pIC50 4.00-4.99)	–	–	–
FC(F)(F)c1ccc2nc(-c3ccc(Cl)cc3)c(CN3CCOCC3)n2c1	++ (pIC50 5.00-5.99)	–	–	–
